Among the data in patent US20110021524A1, “COMPOSITIONS AND METHODS FOR TREATING CANCERS” (IRM LLC, priority 2008, published 2011) are IC50 values, retold here.

Structures are written as SMILES. Read-outs that look alike come from different tables or passages of the source. Some results are limits rather than exact numbers.

In experiment [1] the target is T1, T315I BCR-ABL (Homo sapiens, UniProt P00519, T315I). The experiment can be described thus: cell-based.
Another experiment addresses T2, M351T BCR-ABL (Homo sapiens, UniProt P00519, M351T).
T2 construct: BCR (N-terminal fusion partner); human BCR, P11274; expressed in transfected cells; host or cells: Ba/F3; the other entry of the earlier key: BCR (P11274, Breakpoint cluster region protein)
The experiment can be described thus: Ba/F3 cellular proliferation assay, M351T BCR-ABL. The note with it: Ba/F3 cells, 48 hour; read-out: IC50, cellular potency against M351T mutant. The class given is cell-based.

In another experiment the target is T3, G250E BCR-ABL (Homo sapiens, UniProt P00519, G250E).
T3 construct: BCR (N-terminal fusion partner); human BCR, P11274; expressed in transfected cells; host or cells: Ba/F3; the other entry of the earlier key: BCR (P11274, Breakpoint cluster region protein)
The experiment can be described thus: Ba/F3 cellular proliferation assay, G250E BCR-ABL. Particulars: Ba/F3 cells, 48 hour; read-out: IC50, G250E mutant. The class given is cell-based.

Experiment [2] concerns the target T1, T315I BCR-ABL. The note with it: read-out: IC50, T315I BCR-ABL-dependent proliferation.

In the case of `O=C(NCCO)c1cccc(-c2cc(Nc3ccc(OC(F)(F)F)cc3)ncn2)c1` [GNF-5, N-(2-hydroxyethyl)-3-(6-(4-(trifluoromethoxy)phenylamino)pyrimidin-4-yl)benzamide], the IC50 against T315I BCR-ABL [1] is over 5000 nM; on M351T BCR-ABL, 930 nM; at G250E BCR-ABL, 4520 nM; at T315I BCR-ABL [2] it was 760 nM.
